In patent US10710980B2, “Aminopyridine derivatives and their use as selective ALK-2 inhibitors” (priority 2016, dated 2020):

Tested on: BMP response element (BRE) luciferase reporter in HuH7 cells, BMP6 stimulated
Assay: BMP signaling reporter gene assay
Assay type: cell-based
Conditions: Homo sapiens, Huh-7, 5 h, read-out: MSD BMP RGA IC50

SMILES	IC50 [nM]
CC(C)N1CCC(c2ccc(-c3cnc(N)c(C(=O)N[C@H]4CC[C@H](O)CC4)c3)cc2)C1 (stereo partly shown) [Example 12, 2-amino-N-((1r,4r)-4-hydroxycyclohexyl)-5-(4-(1-isopropylpyrrolidin-3-yl)phenyl)nicotinamide]	125
Nc1ncc(-c2ccc(C3CCNC3)cc2)cc1C(=O)N[C@H]1CC[C@H](O)CC1 (stereo partly shown) [Example 18, 2-amino-N-((1r,4r)-4-hydroxycyclohexyl)-5-(4-(pyrrolidin-3-yl)phenyl)nicotinamide]	2000
Nc1ncc(-c2ccc(N3CCOCC3)cc2)cc1C(=O)NC1CCCCC1 [Example 49, 2-amino-N-cyclohexyl-5-(4-morpholinophenyl)nicotinamide]	790
C[C@@H]1CCCN1Cc1ccc(-c2cnc(N)c(C(=O)N[C@H]3CC[C@](C)(O)CC3)c2)cc1 [Example 72, 2-amino-N-((1r,4R)-4-hydroxy-4-methylcyclohexyl)-5-(4-(((R)-2-methylpyrrolidin-1-yl)methyl)phenyl)nicotinamide]	190
